Measurements published in publication PMC7340475 (Drug Design, Development and Therapy, 2020).

Protein sequences, listed by entry. Tags and fused reporters are not part of them.
UniProt P18089, whole entry: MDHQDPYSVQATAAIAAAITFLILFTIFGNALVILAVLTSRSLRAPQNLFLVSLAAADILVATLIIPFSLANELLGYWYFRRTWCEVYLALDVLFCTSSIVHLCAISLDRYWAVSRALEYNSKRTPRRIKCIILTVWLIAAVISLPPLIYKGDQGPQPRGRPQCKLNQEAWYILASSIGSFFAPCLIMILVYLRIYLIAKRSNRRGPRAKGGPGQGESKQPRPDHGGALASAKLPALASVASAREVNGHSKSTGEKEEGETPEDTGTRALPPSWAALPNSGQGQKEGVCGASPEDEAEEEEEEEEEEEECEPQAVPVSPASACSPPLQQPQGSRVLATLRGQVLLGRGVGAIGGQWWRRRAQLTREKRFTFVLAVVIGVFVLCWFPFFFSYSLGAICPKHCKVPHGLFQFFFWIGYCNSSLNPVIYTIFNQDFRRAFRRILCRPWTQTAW

Target: α2B-AR (Homo sapiens, UniProt P18089)
Experiment: Saturation binding assay of the radioligand
Settings: read-out: KD α2B-AR

Clc1cc(I)cc(Cl)c1NC1=NCCN1 [[^125I]-PIC, [^125I]-paraiodoclonidine] showed a Kd of 0.602 ± 0.081 nM.
